Antibody variant affinities, Ab-14 heavy chain, assay 1

From the AlphaSeq antibody data of Engelhart et al. 2022 (doi:10.1038/s41597-022-01779-4), copy in the FLAb collection.

Antigen: PDVDLGDISGINAS, a 14-residue peptide of the SARS-CoV-2 spike HR2 region.

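Phage display of a naive human antibody library on the peptide gave the parent. Library AAYL49 holds single substitutions and randomly drawn double and triple substitutions in the CDRs. AlphaSeq pools MATa yeast showing the antibodies with MATalpha yeast showing the peptide. Mating (16 h, 30 °C) was followed by selection of diploids and sequencing of their barcodes. Scores were corrected for input abundance and mapped to Kd with protein pairs of known affinity run in the same pool. The assay was run in three technical replicates.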

The variants keep the light chain, the linker and the frameworks of Ab-14 (scFv order VH, a 15-residue (Gly4Ser)3 linker, VL).
VH: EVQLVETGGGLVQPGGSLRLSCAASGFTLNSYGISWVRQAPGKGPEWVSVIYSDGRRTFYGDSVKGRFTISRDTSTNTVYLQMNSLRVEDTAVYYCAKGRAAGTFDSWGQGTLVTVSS
VL: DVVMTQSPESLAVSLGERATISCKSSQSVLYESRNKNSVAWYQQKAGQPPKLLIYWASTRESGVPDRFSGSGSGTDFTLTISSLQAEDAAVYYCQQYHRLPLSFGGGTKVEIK

The parent's heavy chain CDRs are GFTLNSYGIS, VIYSDGRRTFYGDSVK, GRAAGTFDS; each variant's own CDRs replace them letter for letter.
All variants listed here change R57 of the VH, counted from its first residue.
The Kd shown is the geometric mean over detected replicates; a lower Kd is a better binder.
"no signal" marks a missing value. The strain was present, yet no cells mated with the target were sequenced in any replicate, which points to weak or no binding.
Three control strains display no target. For library AAYL49, 15% of the pairings with them gave a signal, with a median of 11 µM and one signal in twenty below 680 nM, so weak values seen in few replicates may be background.

- DFTLNSYGIS | NIYSDGRWTFYGDSVK | GRAAGTFDS = 19 µM (2 of 3 replicates)
- GFTLNWYGIS | VIYHDGRKTFYGDSVK | GRAAGTFDS = 15 µM (1 of 3 replicates)
- MFTLNSYGIS | VIYSDGRQTFYGWSVK | GRAAGTFDS = no signal (0 of 3 replicates)
- GFTLNSMGIS | VPYSDGRMTFYGDSVK | GRAAGTFDS = 160 µM (2 of 3 replicates)
- GFTLNSYGIS | VIYSPGRYTFYGDSVK | GGAAGTFDS = 51 µM (1 of 3 replicates)
- GFTLNSYGIS | VIYSDGRHTFYPDSVK | GRAAGTTDS = no signal (0 of 3 replicates)
- GFTLSSYGIS | VIYSDGRYTFYGDSVK | GRAPGTFDS = 310 µM (1 of 3 replicates)
- GFTLNSNGIS | VIYHDGRITFYGDSVK | GRAAGTFDS = 5.7 µM (2 of 3 replicates)
- GFYLNSYGIS | VIYSQGRFTFYGDSVK | GRAAGTFDS = no signal (0 of 3 replicates)
- GFTLNSYGIS | VIYADGRLTFYGDSVK | GRAAGTFDS = 140 nM (3 of 3 replicates)
- GWTLNSYGIS | VIYSDGRTTPYGDSVK | GRAAGTFDS = 18 µM (2 of 3 replicates)
- GFTLNSYGIS | VIYSDVRDTFYGDSWK | GRAAGTFDS = 22 µM (2 of 3 replicates)
- SFTLNSYGIS | VIYSDGRFTFYGDSVK | GRAAGTFDS = no signal (0 of 3 replicates)
- GFTLNSYGIS | VICSDGRATFYGDVVK | GRAAGTFDS = 1.2 µM (1 of 3 replicates)
- GFTLDSYGIS | VIYSDGRETFYGDSVK | GRAAGTFDN = no signal (0 of 3 replicates)
- GFTLPSYGIS | VIYSDGRHTFWGDSVK | GRAAGTFDS = no signal (0 of 3 replicates)
- GFTLNSYHIS | VIYSDKRPTFYGDSVK | GRAAGTFDS = 4.8 µM (1 of 3 replicates)
- GFTLNSYGIS | VIYSDGRFIIYGDSVK | GRAAGTFDS = 500 µM (1 of 3 replicates)
- GFTLNSYGIS | VIYSDGRKTFYGDEVK | GRAAGTFDS = 260 nM (3 of 3 replicates)
- GFTLNSYGIS | VIYSDGRMKFYGDSRK | GRAAGTFDS = no signal (0 of 3 replicates)
- GFTLNSYGIS | VIYSDGRITFTDDSVK | GRAAGTFDS = no signal (0 of 3 replicates)
- GFTLNSYGIS | VIYSNGRHTFYGISVK | GRAAGTFDS = no signal (0 of 3 replicates)
- GFTQNSYGIS | VIYSDGRFTFYGDSVK | GRAAGMFDS = no signal (0 of 3 replicates)
- GPTLNSYGIS | VIYSDGRVTFYGDSWK | GRAAGTFDS = 42 µM (1 of 3 replicates)
- GFTLNSYGIS | VIYEDGSSTFYGDSVK | GRAAGTFDS = 470 nM (1 of 3 replicates)
- GFTLNSYGIS | VIYSDGRDTFYGDSVK | GRAAGTFDI = 12 µM (2 of 3 replicates)
- GFTLNSYGIS | VIYSDGRHTRYGDSVK | GRAAGTKDS = 1.7 µM (3 of 3 replicates)
- GFTLNVYGIS | CIYSDGRPTFYGDSVK | GRAAGTFDS = 2.9 µM (2 of 3 replicates)
- GFTLNSYGIS | VIYSDGRLTFYGDSVK | GRAAGTFDS = no signal (0 of 3 replicates)
- GFTVNSYGIS | IIYSDGRWTFYGDSVK | GRAAGTFDS = 520 nM (1 of 3 replicates)
- GFTDNSYGIS | VIYSDGRFTFYGDSVG | GRAAGTFDS = no signal (0 of 3 replicates)
- GFTLNSYGIY | VIYSDGRITFYGDSVK | GKAAGTFDS = no signal (0 of 3 replicates)
- GFELNSYGIS | VIYSDGRFTFYGDSVQ | GRAAGTFDS = 580 nM (1 of 3 replicates)
- GFTLNSYGIS | VIYSDGRMTFYGDSVK | GRAAGTFDS = no signal (0 of 3 replicates)
- GFILASYGIS | VIYSDGRTTFYGDSVK | GRAAGTFDS = 420 nM (2 of 3 replicates)
- GFTLNSYEIS | VIYSDGRTTFYGDSVQ | GRAAGTFDS = no signal (0 of 3 replicates)
- GFTLNSYGIS | VIYSDGPCTFYGDSVK | GRADGTFDS = no signal (0 of 3 replicates)
- GFTLNSYGES | VIYSDGRGTFYGDSVK | GRAAGTVDS = no signal (0 of 3 replicates)
- GFTLNSYGIS | VIYSDGRPTFDGDSVK | GRAAGYFDS = 7.0 µM (1 of 3 replicates)
- GFTLNSYAIS | VIYSDGRQTFYNDSVK | GRAAGTFDS = no signal (0 of 3 replicates)
- GFTLNSYPIS | VIYSDGRPTFYGDSVK | GMAAGTFDS = 30 µM (3 of 3 replicates)
- GFTLNSYGIS | VGYSDGRQTFIGDSVK | GRAAGTFDS = 5.3 µM (1 of 3 replicates)
- GFTLNSYGIS | VIYSDGRHTFYGQTVK | GRAAGTFDS = 5.5 µM (1 of 3 replicates)
- GFTLNSYGIA | VIYSDGRITDYGDSVK | GRAAGTFDS = 6.9 µM (2 of 3 replicates)
- GKTLNSYGIA | VIYSDGRLTFYGDSVK | GRAAGTFDS = 38 µM (2 of 3 replicates)
- GFTLNSYGIS | VVYSDGRVTFYGHSVK | GRAAGTFDS = no signal (0 of 3 replicates)
- GFTLNSYGGS | VIYSDGRVTFYGNSVK | GRAAGTFDS = no signal (0 of 3 replicates)
- GFTLNSVHIS | VIYSDGRNTFYGDSVK | GRAAGTFDS = no signal (0 of 3 replicates)

Parent in this assay: reference entry 4.4 nM, copy in this library 13 µM (one replicate of three).